# AlphaSeq binding of Ab-14 light chain variants to a spike HR2 peptide

Source: Li et al. 2023 (doi:10.1038/s41467-023-39022-2), MIT Lincoln Laboratory and A-Alpha Bio; data file from the FLAb repository.

Binding partner: SARS-CoV-2 spike HR2 peptide, sequence PDVDLGDISGINAS.

Parent: Ab-14, a human scFv built as VH, a 15-residue (Gly4Ser)3 linker, VL. Only the CDRs of the light chain vary.
VH: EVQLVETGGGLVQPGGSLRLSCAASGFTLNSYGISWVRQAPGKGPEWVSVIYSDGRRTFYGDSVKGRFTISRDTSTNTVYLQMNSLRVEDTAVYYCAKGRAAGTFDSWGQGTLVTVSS
VL: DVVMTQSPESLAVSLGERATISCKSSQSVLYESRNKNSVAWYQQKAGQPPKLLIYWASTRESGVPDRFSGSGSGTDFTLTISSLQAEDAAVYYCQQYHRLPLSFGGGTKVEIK

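Phage display of a naive human antibody library on the peptide gave the parent. These sequences belong to a second round, designed from the earlier measurements on random variants of the parent. Several design methods are mixed in this list. The scFvs were displayed on barcoded MATa yeast, the peptide on MATalpha yeast. Binding brings cells together so that they mate, and sequencing counts the barcode pairs among the diploids. The ratio of observed to expected reads was calibrated, replicate by replicate, on BCL2-family standards whose Kd was known from biolayer interferometry. Mating was done six times.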

The parent's light chain CDRs are KSSQSVLYESRNKNSVA, WASTRES, QQYHRLPLS; each variant's own CDRs replace them letter for letter. Variants here have at most six changes. Affinities are written as log10 Kd with Kd in nM; a lower number is a better binder. A mean of the replicates is given; it leaves out those without a signal. "ND" marks a missing value. The strain was present, yet no cells mated with the target were sequenced in that replicate, which points to weak or no binding. Values of this round are not directly comparable with the first-round values of the same sequences. In the paper, a design with two or fewer of six values counts as a poor binder. Nonspecific signal, from three strains lacking the peptide, appeared in 4% of pairings of all light chain designs, centred on 2.64 (5% of these signals below 1.59); values are not corrected for it. Also given: how often the same scFv was detected with the empty control strains. A sequence that the file lists under several names has all its replicates listed entry by entry, parted by semicolons. The parent sequence was in this pool as ten entries: three were never detected, three once, and four in most replicates, with averages from 0.34 to 2.37.

Variant KLSQSVLYESRNKNNVA | EASTREK | QQYHRLPLS gave -0.30, -0.57, -0.85, -0.81, -0.76, -0.57 (mean -0.64; controls 0 of 18). Variant KVRQSTLYESRNKNSVA | GASTRES | QQYHRLPLS showed -0.36, -0.35, -0.30, -0.55, -0.47, -0.22 (mean -0.38; controls 1 of 18). For KFQQSVLYESRNKNSVA | NASTRES | QQYHRLPLS, the assay gave -0.10, -0.17, -0.36, -0.32, -0.30, -0.11 (mean -0.23; controls 0 of 18). For KSLWSVLYESRNKNSVA | HASTRED | QQYHRLPLS, the assay gave ND, ND, ND, ND, ND, ND (controls 0 of 18). With KSSPSVLYESRNKNSVA | DASTREE | QQYHRLPLS the result was -0.10, -0.05, -0.15, -0.29, -0.28, -0.07 (mean -0.16; controls 0 of 18). Variant KSSQSVLYESRNKNSIA | WASMRIS | AQYHRLPLS showed ND, ND, ND, ND, ND, ND (controls 1 of 18). Variant KSSQSVLYESYNSNSVA | WASTRES | QQDHRLPLS gave ND, ND, 1.44, ND, ND, ND (controls 0 of 18). Variant KLSQSVLYEDRNKNNVA | NASQRES | QQYHRLPLS showed 0.24, -0.17, -0.10, 1.00, 0.01, 0.09 (mean 0.18; controls 0 of 18). Variant KSSQSVEQESRNKNSVA | WASTRES | QQYHRLPLS gave 2.02, 1.27, 1.79, 1.34, 1.99, 1.64 (mean 1.67; controls 0 of 18).

Variant KLSQSVLYEERNKNSVA | GASTRLS | QQYHRLPLS showed -0.22, -0.30, -0.24, -0.47, -0.40, -0.29 (mean -0.32; controls 2 of 18). For KLEQSVLYESRNKNSVA | NASQREV | QQYHRLPLS, the assay gave -0.19, -0.03, -0.19, -0.27, -0.10, 0.01 (mean -0.13; controls 3 of 18). For KSSGSVLYESRNKNSVA | DASTRES | QQYHRLPLS, the assay gave 0.37, 0.42, 0.21, 0.12, 0.32, 0.38; 0.78, 1.31, 0.83, 0.72, 0.82, 1.34 (mean 0.63; controls 5 of 36). For KSSQSVLYESRGKNSVA | AADTRES | QQYHRLPLS, the assay gave 1.37, 1.44, 1.69, 1.12, 1.24, 1.52 (mean 1.40; controls 0 of 18). For KSSQSTLYESRNGNSVA | GASTRES | QQYHRLPLS, the assay gave 1.57, 1.62, 1.38, ND, 1.14, 0.54 (mean 1.25; controls 0 of 18). Variant KSSQSVLYESTNKVSVA | WASTRES | QQYHRLPLS gave ND, ND, 1.98, ND, 1.30, ND (mean 1.64; controls 0 of 18). For KLPQSVLYESRMKNSVA | NASQRES | QQYHRLPLS, the assay gave 0.09, -0.20, -0.19, -0.45, -0.08, -0.10 (mean -0.15; controls 0 of 18). Variant KLSQSCLYESRNKNSVA | GASTRES | QQYHRLPLS showed -0.52, -0.65, -0.64, -0.94, -0.78, -0.51 (mean -0.67; controls 0 of 18). Variant KISQSVLTESRNKNSVA | SASTRES | QQYHRLPLS gave -0.03, -0.16, -0.16, -0.51, -0.39, -0.05 (mean -0.22; controls 0 of 18).

For VSSQSVLYESRNKNSVA | WASTLES | QQYHRLPLS, the assay gave ND, ND, ND, ND, ND, ND (controls 0 of 18). With KSSQSVLDESRNKNSVA | SASTRES | QQYARLPLS the result was 0.38, 0.19, 0.14, 0.35, 0.18, 0.21 (mean 0.24; controls 0 of 18). With KSSQSVLMESRNPNSVA | DASTRES | QQYHRLPLS the result was -0.13, -0.28, -0.30, -0.41, -0.14, -0.13 (mean -0.23; controls 0 of 18). For KSSQSTLYESANKNSVA | WGSTRES | QQYHRLPLS, the assay gave 0.75, 0.88, 0.37, 1.14, 1.34, 0.69 (mean 0.86; controls 1 of 18). Variant KSSDLVLYESRNKNSVA | WASTRES | DQYHILPWS gave ND, ND, ND, ND, ND, ND (controls 0 of 18). For KFSQWVLYESRTKNSVA | NASTRES | QQYHRLPLS, the assay gave 0.63, 0.47, 0.34, 0.27, 0.45, 0.51 (mean 0.45; controls 1 of 18). Variant KSSQSVYYSSRNKNSVA | WASIRES | QQYHCLPLS gave 1.81, ND, ND, ND, 2.96, ND (mean 2.38; controls 2 of 18). With KLRMSTLYESRNKNSVA | QASKRES | QQYHRLPLS the result was 0.35, 0.19, 0.33, 0.00, 0.19, 0.16 (mean 0.20; controls 2 of 18). With HLMQSVLYESRNKNSVA | HASLRED | QQYHRLPLS the result was 0.29, 0.24, -0.03, 0.49, 0.36, 0.49 (mean 0.31; controls 0 of 18).

Variant KFKQSVLYESRNKNSVA | GASTREQ | QSYHRLPLS gave -0.23, -0.13, -0.32, 1.32, -0.54, 0.18 (mean 0.05; controls 0 of 18). For KSSQSVLYESRNKNSVA | QASTRFS | QQYHRLPNS, the assay gave 3.00, 2.19, 2.66, 2.24, 1.80, 2.77 (mean 2.44; controls 0 of 18). With KSSQSVLYESRNKNSVA | NASTRES | QQYHELPLS the result was 1.13, 1.39, 1.43, 1.48, 1.56, 1.85 (mean 1.47; controls 1 of 18). Variant HLSQSVLYESRMKNSVA | NASTRES | QQYHRLPLS gave 0.23, -0.25, -0.38, -0.03, -0.26, 0.22 (mean -0.08; controls 0 of 18). For KLEQLQLYESRNKNSVA | NASTRES | QQYHRLPLS, the assay gave 0.15, -0.43, -0.52, -0.56, 0.07, -0.23 (mean -0.25; controls 0 of 18). With KSMQSVLYESGNKNSVA | QASFREE | QQYHRLPLS the result was -0.48, -0.08, 0.98, 0.00, -0.41, 0.42 (mean 0.07; controls 0 of 18). Variant KIYQSVLYESRNKNSVA | WASTRSQ | QQYHRLPLS gave 1.55, 1.31, 1.89, 1.49, 1.48, 1.28 (mean 1.50; controls 2 of 18). Variant KSSQSVLYESRNKNSVA | WASTRES | QAYPRLPLS showed ND, ND, ND, ND, ND, ND (controls 1 of 18). Variant KLQQSTLYESRNKNSVA | NASTRMS | QQYHRLPLS showed -0.25, -0.46, -0.02, -0.33, -0.32, -0.42 (mean -0.30; controls 2 of 18).

With MNSQSVEYESTNKNSVA | WASTRES | QQYHRLPFS the result was ND, 1.74, 4.08, ND, ND, 2.41 (mean 2.75; controls 1 of 18). With ISSQSVLMESRNKNSVA | DASTRES | QQYHRLPLS the result was -0.03, -0.01, -0.11, -0.29, 0.07, 0.24 (mean -0.02; controls 1 of 18).

The first 5 entries again:

| CDR-L1 | CDR-L2 | CDR-L3 | log10 Kd, replicates | mean log10 Kd (nM) | signal with controls |
|---|---|---|---|---|---|
| KLSQSVLYESRNKNNVA | EASTREK | QQYHRLPLS | -0.30, -0.57, -0.85, -0.81, -0.76, -0.57 | -0.64 | 0/18 |
| KVRQSTLYESRNKNSVA | GASTRES | QQYHRLPLS | -0.36, -0.35, -0.30, -0.55, -0.47, -0.22 | -0.38 | 1/18 |
| KFQQSVLYESRNKNSVA | NASTRES | QQYHRLPLS | -0.10, -0.17, -0.36, -0.32, -0.30, -0.11 | -0.23 | 0/18 |
| KSLWSVLYESRNKNSVA | HASTRED | QQYHRLPLS | ND, ND, ND, ND, ND, ND | ND | 0/18 |
| KSSPSVLYESRNKNSVA | DASTREE | QQYHRLPLS | -0.10, -0.05, -0.15, -0.29, -0.28, -0.07 | -0.16 | 0/18 |